Literature values as cited in patent US10676780B2, “Stabilisation and isolation of extracellular nucleic acids” (QIAGEN GmbH, priority 2011, dated 2020).

Sequences of proteins named here, by UniProt entry; tags and fusion partners are left off. Residues count along the entry.
UniProt P29466, 120-404 limits assumed: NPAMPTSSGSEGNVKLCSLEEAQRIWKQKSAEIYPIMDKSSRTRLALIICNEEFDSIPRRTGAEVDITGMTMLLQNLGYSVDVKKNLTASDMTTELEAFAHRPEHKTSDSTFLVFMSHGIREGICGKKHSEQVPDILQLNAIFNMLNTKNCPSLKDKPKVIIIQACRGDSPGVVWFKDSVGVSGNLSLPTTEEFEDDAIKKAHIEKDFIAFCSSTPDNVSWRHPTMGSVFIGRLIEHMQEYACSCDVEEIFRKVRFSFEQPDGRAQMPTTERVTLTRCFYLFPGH

Biological target: caspase-1 (Homo sapiens, UniProt P29466)
Conditions: cited from earlier work

For Ac-IETD-aldehyde, the Ki is given as < 6 nM.
